Data taken from patent publication US20220249814A1, “METHODS AND DEVICES FOR TREATING A DISEASE WITH BIOTHERAPEUTICS” (PROGENITY, INC., priority 2018, published 2022).

Experiment: Example 3 blood insulin pharmacokinetics after SC or intra-jejunal jet delivery
Assay type: in vivo, Yorkshire female swine

Substance “Novolin® R: regular human insulin (NOVOLIN® R)” has a Tmax blood insulin (IJ administration by jet delivery device (~40 U), animal 18P14) of 75 min and a Tmax blood insulin (SC administration, animal 18P21) of 75 min.
